Measured values as given in patent US20260218132A1, “METHODS AND MATERIALS FOR GENERATING STEM CELL-DERIVED ENDOCRINE CELL TYPES” (Mayo Foundation for Medical Education and Research, priority 2023, published 2026).

Tested on: pre-delta cells
Experiment: Differentiation of pre-delta cells to SCδ cells (stage 6), flow cytometry and immunohistochemistry
Format: cell-based, human
Conditions: stage 6, flow cytometry

C=C[C@@]1(C)CC(=O)[C@]2(O)[C@@]3(C)[C@@H](O)CCC(C)(C)[C@@H]3[C@H](O)[C@H](OC(C)=O)[C@@]2(C)O1 [forskolin, [(3R,4aR,5S,6S,6aS,10S,10aR,10bS)-3-ethenyl-6,10,10b-trihydroxy-3,4a,7,7,10a-pentamethyl-1-oxo-5,6,6a,8,9,10-hexahydro-2H-benzo[f]chromen-5-yl]acetate]
SST^+GCG^−INS^+ cells: 26.76±1.33%
total glucagon positive cells: 19.92±2.29%
total somatostatin positive cells: 58.27±1.71%
